Measurements as given in publication PMC11484851, “Structure of endothelin ETB receptor–Gi complex in a conformation stabilized by unique NPxxL motif” (Communications Biology, 2024).

Legend:
Test in all cases: cell-based or functional assay
ETBR S390A = target: T1, ETBR S390A (human, UniProt P24530 27-442, S390A)
T1 sequence (looked up): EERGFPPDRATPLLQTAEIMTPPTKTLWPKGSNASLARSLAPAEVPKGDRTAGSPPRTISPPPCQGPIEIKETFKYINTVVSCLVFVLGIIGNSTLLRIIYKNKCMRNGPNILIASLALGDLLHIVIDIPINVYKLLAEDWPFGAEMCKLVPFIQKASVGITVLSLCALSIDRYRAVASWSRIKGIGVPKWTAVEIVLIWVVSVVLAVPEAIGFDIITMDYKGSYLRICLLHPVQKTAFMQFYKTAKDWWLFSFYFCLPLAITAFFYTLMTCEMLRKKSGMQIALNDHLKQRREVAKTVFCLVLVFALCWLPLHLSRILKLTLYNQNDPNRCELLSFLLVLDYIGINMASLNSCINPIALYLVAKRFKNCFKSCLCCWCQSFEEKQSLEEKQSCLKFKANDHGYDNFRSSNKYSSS

ETBR V325A = target: T2, ETBR V325A (human, UniProt P24530 27-442, V325A)
T2 sequence (looked up): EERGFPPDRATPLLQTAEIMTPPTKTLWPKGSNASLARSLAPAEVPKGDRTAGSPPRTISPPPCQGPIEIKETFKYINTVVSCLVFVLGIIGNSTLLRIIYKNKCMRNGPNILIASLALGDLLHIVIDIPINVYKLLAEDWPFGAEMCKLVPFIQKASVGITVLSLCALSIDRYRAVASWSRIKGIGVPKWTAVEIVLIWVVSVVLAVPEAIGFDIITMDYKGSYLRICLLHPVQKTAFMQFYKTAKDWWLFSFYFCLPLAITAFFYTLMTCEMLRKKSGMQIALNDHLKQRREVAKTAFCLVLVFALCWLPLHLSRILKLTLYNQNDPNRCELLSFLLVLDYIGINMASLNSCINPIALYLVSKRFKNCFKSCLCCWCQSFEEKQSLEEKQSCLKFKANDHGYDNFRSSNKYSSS

ETBR M300A = target: T3, ETBR M300A (human, UniProt P24530 27-442, M300A)
T3 sequence (looked up): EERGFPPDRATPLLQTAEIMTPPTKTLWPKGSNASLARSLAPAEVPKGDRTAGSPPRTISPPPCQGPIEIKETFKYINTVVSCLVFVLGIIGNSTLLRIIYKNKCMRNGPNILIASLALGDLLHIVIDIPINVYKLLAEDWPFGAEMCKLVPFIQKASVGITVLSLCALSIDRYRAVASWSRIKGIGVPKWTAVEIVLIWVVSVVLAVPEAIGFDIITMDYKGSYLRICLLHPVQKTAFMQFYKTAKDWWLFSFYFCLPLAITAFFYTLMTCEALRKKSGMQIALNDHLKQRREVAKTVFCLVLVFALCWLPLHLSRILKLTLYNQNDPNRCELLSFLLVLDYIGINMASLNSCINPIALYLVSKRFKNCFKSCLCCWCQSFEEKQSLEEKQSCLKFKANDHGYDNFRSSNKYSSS

ETBR M296A = target: T4, ETBR M296A (human, UniProt P24530 27-442, M296A)
T4 sequence (looked up): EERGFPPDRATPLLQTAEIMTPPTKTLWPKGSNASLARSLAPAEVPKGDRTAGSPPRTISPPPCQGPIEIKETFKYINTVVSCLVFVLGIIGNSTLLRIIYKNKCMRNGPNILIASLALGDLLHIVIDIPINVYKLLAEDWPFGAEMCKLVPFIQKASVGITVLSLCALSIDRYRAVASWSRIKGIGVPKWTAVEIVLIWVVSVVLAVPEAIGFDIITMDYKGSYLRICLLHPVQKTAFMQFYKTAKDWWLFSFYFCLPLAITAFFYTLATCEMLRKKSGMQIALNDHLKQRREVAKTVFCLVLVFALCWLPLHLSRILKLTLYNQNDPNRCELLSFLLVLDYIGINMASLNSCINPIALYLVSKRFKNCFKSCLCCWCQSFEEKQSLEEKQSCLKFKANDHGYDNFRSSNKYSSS

NanoBiT Gi-protein dissociation assay, ET-1-induced, HEK293A cells, mutant receptor against wild type, considering expression (ETBR S390A): ~50 % reduction
NanoBiT Gi-protein dissociation assay, ET-1-induced, HEK293A cells, mutant receptor against wild type, considering expression (ETBR V325A): ~50 % reduction
NanoBiT Gi-protein dissociation assay, ET-1-induced, HEK293A cells, mutant receptor against wild type, considering expression (ETBR M300A): ~50 % reduction
NanoBiT Gi-protein dissociation assay, ET-1-induced, HEK293A cells, mutant receptor against wild type, considering expression (ETBR M296A): ~50 % reduction
B1: wild-type Gαi1 subunit (natural protein, human)
chain: MGCTLSAEDKAAVERSKMIDRNLREDGEKAAREVKLLLLGAGESGKSTIVKQMKIIHEAGYSEEECKQYKAVVYSNTIQSIIAIIRAMGRLKIDFGDSARADDARQLFVLAGAAEEGFMTAELAGVIKRLWKDSGVQACFNRSREYQLNDSAAYYLNDLDRIAQPNYIPTQQDVLRTRVKTTGIVETHFTFKDLHFKMFDVGGQRSERKKWIHCFEGVTAIIFCVALSDYDLVLAEDEEMNRMHESMKLFDSICNNKWFTDTSIILFLNKKDLFEEKIKKSPLTICYPEYAGSNTYEEAAAYIQCQFEDLNKRKDTKEIYTHFTCATDTKNVQFVFDAVTDVIIKNNLKDCGLF
